From US20040057976A1, “Insect bait” (priority 2002, published 2004) come the findings set out here.

The subject of this series is T. Albipes adults. As to conditions: first trial; 3 days exposure; non-forced bioassay; means of 5 replicates. From the text: White-footed ants were collected from a stand of Phoenix roebelenii palms at the University of Florida Fort Lauderdale Research and Education Center (Broward Co., FL). Adult ants and brood were collected from nesting sites in palm thatch between 9 a.m. and 3 p.m., when most of the foragers are in the nests. The thatch was placed in a plastic 100-liter garbage pail through a 28-cm hole cut into the center of its lid. The upper portions of the interior sides of the pail were coated with a petroleum jelly (Vaseline® London, UK) to retard the ants' escape.
Infested thatch material was taken from the garbage pail, placed in the container, covered with 1×15-cm strips of wood and a separator sheet of 3-mm polycarbonate with 2-mm holes. Dripping water from a 2-1 tank suspended over the container forced the ants to leave the thatch and enter nesting tubes (10×75 mm clear polystyrene test tubes) (Fisher Scientific, Pittsburgh, Pa.), filled at the bottom with a small cotton ball soaked with sugar water, and completely covered with aluminum foil.
Nalgene™ reusable plastic utility boxes with lids ([…]) (Fisher Scientific, Pittsburgh, Pa.) were used to hold white-footed ant colonies for laboratory tests (FIG. 4). Nesting tubes with about 200 ants and dozens of brood were placed into each box, held in place with a small amount of Handi-Tak®. […]

In the case of `O=[N+]([O-])NC1=NCCN1Cc1ccc(Cl)nc1` [Imidacloprid], the “Mean percent Mortality (+/SD) of T. Albipes adults” value was 14.06 ± 7.40b %.
